In ChEMBL document CHEMBL1828598, “Discovery of gemfibrozil analogues that activate PPARα and enhance the expression of gene CPT1A involved in fatty acids catabolism” (Eur J Med Chem, 2011):
Activity calls are given as the source filed them. The rule behind the calls is not given here.

Each compound was assayed against T1, Peroxisome proliferator-activated receptor alpha (Homo sapiens) (UniProt Q07869) (assay: Agonist activity at Gal4-fused PPARalpha expressed in HEK293 cells after 18 hrs by dual luciferase reporter gene assay relative to gemfibrozil).
T1 sequence (whole entry): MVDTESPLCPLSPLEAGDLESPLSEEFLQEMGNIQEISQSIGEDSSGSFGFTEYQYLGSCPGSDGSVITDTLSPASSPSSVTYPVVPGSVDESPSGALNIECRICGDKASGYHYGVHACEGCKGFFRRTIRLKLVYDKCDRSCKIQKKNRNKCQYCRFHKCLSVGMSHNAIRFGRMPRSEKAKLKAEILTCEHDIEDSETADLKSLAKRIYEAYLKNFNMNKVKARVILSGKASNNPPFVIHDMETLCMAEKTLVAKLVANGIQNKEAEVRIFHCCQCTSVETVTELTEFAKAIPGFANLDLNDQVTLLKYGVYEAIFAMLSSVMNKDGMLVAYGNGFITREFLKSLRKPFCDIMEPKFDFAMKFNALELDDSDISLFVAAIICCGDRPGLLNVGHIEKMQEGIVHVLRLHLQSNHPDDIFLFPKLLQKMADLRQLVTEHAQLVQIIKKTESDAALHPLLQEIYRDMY
Format: functional, cell-based
In short: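 HEK293 cells were grown in DMEM with 10% FCS, penicillin/streptomycin, sodium pyruvate and nonessential amino acids at 37 °C, 5% CO2. The next day they were transfected in serum-free medium by calcium phosphate with GAL4-PPARα LBD (30 ng), firefly luciferase reporter (50 ng), renilla normalization vector (20 ng) and carrier DNA. Ligands were added 8 h later for 18 h. Efficacy is given as % of maximal gemfibrozil fold induction, from at least three separate experiments.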

SMILES | Efficacy
O=C(O)CCCCOc1ccc(Oc2ccccc2)cc1 | inactive
CC(=O)c1ccc(OCCCC(C)(C)C(=O)O)cc1 | inactive
O=C(O)CCCCOc1ccc(/N=N/c2ccccc2)cc1 | inactive
CC(=O)c1ccc(OCCCCC(=O)O)cc1 | inactive
